Among the data in patent publication US20080146500A1 (published 2008) are IC50 values, retold here.

This test has as its target T1, human VPAC2 receptor (human, UniProt P41587 24-438).
T1 construct: whole, on cells
T1 sequence (looked up): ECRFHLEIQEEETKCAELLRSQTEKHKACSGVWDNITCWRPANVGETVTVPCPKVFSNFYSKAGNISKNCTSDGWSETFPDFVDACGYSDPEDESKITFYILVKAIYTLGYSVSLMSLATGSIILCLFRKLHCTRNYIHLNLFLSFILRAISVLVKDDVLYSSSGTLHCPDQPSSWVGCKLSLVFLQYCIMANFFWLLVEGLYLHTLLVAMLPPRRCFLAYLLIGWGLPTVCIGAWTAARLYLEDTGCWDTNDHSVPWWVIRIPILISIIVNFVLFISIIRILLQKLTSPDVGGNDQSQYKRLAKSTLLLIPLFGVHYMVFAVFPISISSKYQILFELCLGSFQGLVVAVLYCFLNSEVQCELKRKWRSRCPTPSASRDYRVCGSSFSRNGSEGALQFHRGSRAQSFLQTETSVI
The experiment in a line: filter binding, VPAC2 membranes, 125I-VIP tracer.

B1: PACAP-27 (pituitary adenylate cyclase-activating polypeptide, 27 amino acids) (ligand)
peptide: HSDGIFTDSYSRYRKQMAVKKYLAAVL
modifications: not fully specified
In general, IC50 refers to the concentration at which inhibition is half-maximal. Read a low IC50 as higher potency. As for B1, the IC50 was found to be 2.52 nM.
